Source: patent US8883749B2, “Transcription factor inhibitors and related compositions, formulations and methods” (The Ohio State University, priority 2009, dated 2014)

How the values were obtained:
[1] = system: MDA-MB-231 breast cancer cells; conditions: LLL12 500 nM with doxorubicin 100-400 nM, 72 hours
[2] = system: PANC-1 pancreatic cancer cells; experiment: MTT cell viability assay; assay type: cell-based; conditions: Homo sapiens; PANC-1, MTT, 72 hours, 10% FBS; read-out: half-maximal inhibitory concentration (IC50), cell viability
Method: (§1) STAT3 activation is important for tumor cell proliferation and survival. […] A dose-dependent inhibition in tumor cell proliferation/viability was seen after 72 hours of treatment. […] The inhibitory efficacy of the three compounds was compared.
(§2) The cells were incubated at 37° C. for a period of 72 hours. 3-(4,5-Dimethylthiazolyl)-2,5-diphenyltetrazolium bromide (MTT) viability assay was done according to manufacturer's protocol (Roche Diagnostics, Mannheim, Germany). The absorbance was read at 595 nm. Half-maximal inhibitory concentrations (IC50) were determined using Sigma Plot 9.0 Software (Systat Software Inc., San Jose, Calif.).

[3] = system: MDA-MB-231 breast cancer cells; experiment: MTT cell viability assay; assay type: cell-based; conditions: Homo sapiens; MDA-MB-231, MTT, 72 hours, 10% FBS; read-out: half-maximal inhibitory concentration (IC50), cell viability
Method: as §1, §2

[4] = system: HPAC pancreatic cancer cells; experiment: MTT cell viability assay; assay type: cell-based; conditions: Homo sapiens, 72 hours, 10% FBS, read-out: half-maximal inhibitory concentration (IC50), cell viability
Method: as §1, §2

U87 glioblastoma cells = experiment: MTT cell viability assay; assay type: cell-based; conditions: Homo sapiens, 72 hours, 10% FBS, read-out: half-maximal inhibitory concentration (IC50), cell viability
Method: as §1, §2

U373 glioblastoma cells = experiment: MTT cell viability assay; assay type: cell-based; conditions: Homo sapiens, U373 MG, 72 hours, 10% FBS, read-out: half-maximal inhibitory concentration (IC50), cell viability
Method: as §1, §2

[5] = system: SK-BR-3 breast cancer cells; experiment: MTT cell viability assay; assay type: cell-based; conditions: Homo sapiens; SK-BR-3, MTT, 72 hours, 10% FBS; read-out: half-maximal inhibitory concentration (IC50), cell viability
Method: as §1, §2

[6] = system: MDA-MB-231 breast cancer cells; conditions: treatment 4 h, migration 24 h
[7] = system: HPAC pancreatic cancer cells; conditions: LLL12 1000 nM with gemcitabine, 72 hours

**Q.** How did the “Combinational Index (CI)” value [1] turn out when `NS(=O)(=O)c1cccc2c1C(=O)c1cccc(O)c1C2=O` [LLL12] was run?
**A.** less than 1

**Q.** What about the IC50 [2] of the same compound?
**A.** 290 nM

**Q.** What about the IC50 [3] of the same compound?
**A.** 970 nM

**Q.** What about the IC50 [4] of the same compound?
**A.** 160 nM

**Q.** And the IC50 (U87 glioblastoma cells)?
**A.** 210 nM

**Q.** And the IC50 (U373 glioblastoma cells)?
**A.** 860 nM

**Q.** What about the IC50 [5] of the same compound?
**A.** 3090 nM

**Q.** What about the “concentration causing a significant decrease in cell migration” value [6] of the same compound?
**A.** ≥ 2.5 µM

**Q.** And the “Combinational Index (CI)” value [7]?
**A.** less than 1
